For the data set, the system named is C57BL/6 male mouse. The settings on record: 14 days observation; for deaths versus administered animals: one-time.

Like-named read-outs stand apart in the source and are kept apart here.
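Further: mice given a single dose and followed for 14 days, with deaths tallied, LD50 derived from the doses given and the resulting death counts.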

As for Interferon-β, the “deaths versus administered animals” value is reported as 0/6 (600 mg/kg intravascular); 1/7 (800 mg/kg intravascular); 2/6 (1000 mg/kg intravascular); 4/7 (1200 mg/kg intravascular); 5/8 (1500 mg/kg intravascular); 7/7 (1700 mg/kg intravascular). The LD50 (in general, the dose expected to kill half of the subjects tested) (intravascular, one-time administration) is 1222 mg/kg.

(Values after patent US20080138437A1, “Antitumor Agent” (priority 2004, published 2008).)
